Source: patent publication US20060228754A1 (priority 1998, published 2006)

Assays:
human α-thrombin [1] = target: T1, human α-thrombin (Homo sapiens, UniProt P00734); conditions: identified in the literature as an inhibitor; cited from earlier work
human α-thrombin [2] = target: T1, human α-thrombin; test: FC-MS screening against immobilized human α-thrombin

NC(N)=NCCC[C@H](NC(=O)[C@@H]1CCCN1C(=O)[C@H](N)Cc1ccccc1)C(=O)O
Kd (human α-thrombin [1]): 1000 nM
maximum intensity relative to the infusion concentration (roll-up effect) (human α-thrombin [2]; 1 μM fPR with 1 μM fPR-chloromethyl ketone, FIG. 16B): approximately 3 times
V−V0 (in words) (human α-thrombin [2]; fresh column, void marker compound and peptide alone, 1 μM each): approximately twice the value measured from the mixture
